From patent US20120244601A1, “[…] INDUCIBLE GENE […]” (priority 2011, published 2012)

Tested on: MamK-GFP fusion
Assay: MamK-GFP expression imaging in M. magneticum
Settings: for MamK-GFP expression in the absence of the inducer: no theophylline

B1: Riboswitch A: synthetic theophylline-responsive riboswitch, mRNA sequence SEQ ID NO: 11 (nucleic acid)
chain: GGUACCGGUGAUACCAGCAUCGUCUUGAUGCCCUUGGCAGCACCCUGAGAAGGGGCAACAAGAUG
modifications: chemistry not fully specified
MamK-GFP expression in the absence of the inducer: detectable levels of MamK-GFP expression

B2: Riboswitch D: synthetic theophylline-responsive riboswitch, mRNA sequence SEQ ID NO: 14 (nucleic acid)
chain: GGUACCGGUGAUACCAGCAUCGUCUUGAUGCCCUUGGCAGCACCCUGCUAAGGUAACAACAAGAUG
modifications: chemistry not fully specified
MamK-GFP expression in the absence of the inducer: detectable levels of MamK-GFP expression

B3: Riboswitch B: synthetic theophylline-responsive riboswitch, mRNA sequence SEQ ID NO: 12 (nucleic acid)
chain: GGUACCGGUGAUACCAGCAUCGUCUUGAUGCCCUUGGCAGCACCCGCUGCGCAGGGGGUAUCAACAAGAUG
modifications: chemistry not fully specified
MamK-GFP expression in the absence of the inducer: no visible expression of MamK-GFP | levels of MamK-GFP at comparable times post induction (theophylline 1 mM): higher levels of MamK-GFP than riboswitch C | suitability of MamK-GFP levels for magnetosome localization studies (theophylline 1 mM): levels of MamK-GFP suitable for magnetosome localization studies

B4: Riboswitch C: synthetic theophylline-responsive riboswitch, mRNA sequence SEQ ID NO: 13 (nucleic acid)
chain: GGUACCUGAUAAGAUAGGGGUGAUACCAGCAUCGUCUUGAUGCCCUUGGCAGCACCAAGGGACAACAAGAUG
modifications: chemistry not fully specified
MamK-GFP expression in the absence of the inducer: no visible expression of MamK-GFP | suitability of MamK-GFP levels for magnetosome localization studies (theophylline 1 mM): levels of MamK-GFP suitable for magnetosome localization studies
